# In patent publication US7550588B2, “Homotropanes with central nervous system activity” (The Research Foundation of State University of New York, priority 2006, dated 2009):
# Chains of the proteins cited; added tags and fusions are not shown.
# UniProt P31652, whole entry, looked up: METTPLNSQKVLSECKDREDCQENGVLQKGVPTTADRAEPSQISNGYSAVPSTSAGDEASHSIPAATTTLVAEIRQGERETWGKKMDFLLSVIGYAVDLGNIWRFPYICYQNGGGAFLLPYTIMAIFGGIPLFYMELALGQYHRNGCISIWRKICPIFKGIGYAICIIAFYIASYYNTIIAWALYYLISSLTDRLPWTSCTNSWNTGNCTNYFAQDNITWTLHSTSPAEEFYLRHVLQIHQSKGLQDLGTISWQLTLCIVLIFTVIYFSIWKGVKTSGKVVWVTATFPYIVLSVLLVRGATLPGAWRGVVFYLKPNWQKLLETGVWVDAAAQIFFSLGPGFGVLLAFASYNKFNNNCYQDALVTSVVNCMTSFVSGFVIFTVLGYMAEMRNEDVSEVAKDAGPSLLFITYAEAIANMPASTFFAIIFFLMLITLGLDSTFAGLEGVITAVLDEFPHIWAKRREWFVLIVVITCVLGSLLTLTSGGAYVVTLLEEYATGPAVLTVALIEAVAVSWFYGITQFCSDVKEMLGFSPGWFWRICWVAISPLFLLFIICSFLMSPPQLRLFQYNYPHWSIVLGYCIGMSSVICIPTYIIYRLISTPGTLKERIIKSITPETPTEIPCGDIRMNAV
# Biological target: serotonin transporter (SERT) (Rattus norvegicus, UniProt P31652)
# Assay: Displacement of [3H]paroxetine binding at 5-HT transport sites in rat frontal cortex membranes
compound,measurement,setting,value
"CCC(=O)C1C2CCC(CC1c1ccc(C)cc1)N(C)C2 (stereo not drawn) [compound 23, 6-Methyl-2α-propionyl-3β-(p-tolyl)-6-azabicyclo[3.2.2]nonane]",Ki,"read-out: Binding (nM) SERT, [3H]paroxetine 0.4 nM, rat frontal cortex membranes, Cheng-Prusoff, mean ± S.E.M., tested as racemates",> 2500 nM
same,binding affinity at SERT (in words),summary of Table 1,very low binding affinity
